A549 viability: counter-screen for Nrf2 inhibitors: cytotoxicity in A549 cells; A549 ARE-Fluc cells, CellTiter-Fluor viability, 18-24 h; Potency, µM (series often up to 46 µM), for the others: at the top dose activity change, negative = cytotoxicity, actives largely listed as inhibitors; 390,000 compounds, 0.16% hits; further: potency means the concentration at half of the fitted maximal effect; on the % scale 0 is the no-effect control and ±100 the full control effect
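A549 ARE-Fluc cells in 5% FBS OPTI-MEM, 5000 cells/well, rested 2 h then exposed to compounds in concentration-response for 18-24 h at 37 °C. Viability by CellTiter-Fluor fluorescence (Ex 405/Em 525) after 30 min; luciferase luminescence (BugLite, 15 min, RT) read afterwards.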
Nrf2 ARE act: activates Nrf2 signaling | 410,000 compounds, 0.31% hits | AID 624171 | AREc32 ARE-luciferase reporter (MCF7-derived line), luminescence, 24 h | Potency, µM (highest dose often 46.1 µM), inactives show top-dose activation, usual class: activators; further: potency means the concentration at half of the fitted maximal effect; % of control where 0% means no effect; nearly all actives have a fitted effect of over 65% in size
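AREc32 cells carrying an ARE-driven firefly luciferase reporter were seeded at 1000 cells/well in OPTI-MEM with 5% FBS, then exposed to compound for 24 hr at 37 deg C. Luminescence was read with Steady-Glo after 30 min at RT.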
Nrf2 inh: Nrf2 pathway inhibition; A549 ARE-Fluc reporter, luciferase luminescence, 18-24 h; Potency, µM (titrated, usually from 46 µM), inactives show at the top dose activity change, negative = inhibition, usual class: inhibitors; 360,000 compounds, 2.1% hits; further: potency means the concentration at half of the fitted maximal effect; on the % scale 0 is the no-effect control and ±100 the full control effect; nearly all actives have a fitted effect of over 60% in size
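Nrf2 activity is the BugLite luminescence, read 15 min after reagent at room temperature, following CellTiter-Fluor cytotoxicity readout (30 min, 37C). Compound titrations were applied for 18-24 h to 5000 A549 ARE_Fluc cells/well in 5% FBS OPTI-MEM.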
miR-21 reporter: raises the signal of a miR-21 reporter. HeLa miR-21 FLuc reporter, luciferase, 48 h. 340,000 tested, under 10 active. Potency, µM (highest dose often 38.3 µM), for the others: at the highest dose reporter change, positive = more light; active = well fitted rising curve with a large enough effect; inconclusive = small, poorly fitted or top-dose-only effect; inactive = no such curve, though single readings can be large or run the other way;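 note: % of control where 0% means no effect; miR-21 action dims this reporter so a rising signal means less miR-21 action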
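Using DMEM plus 10% FBS, HeLa miR-21-FLuc cells are incubated with test compounds (final up to about 40uM) for 48 hours; firefly luciferase signal is then imaged following reagent-mediated lysis.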
Glioma ERSR ind: induces the endoplasmic reticulum stress response in human glioma cells; U87-MG GRP78 promoter luciferase reporter, 16 h; Potency, µM, inactives show at the highest dose activation, most hits filed as activators; 420,000 compounds, 0.02% hits; AID 602332; further: potency means the concentration at half of the fitted maximal effect; series mostly up to about 76 µM; % of control where 0% means no effect; nearly all actives have a fitted effect of over 35% in size
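ERSR induction read as luciferase luminescence (Bright-Glo, 10 min at room temperature) in stably transfected human U87-MG glioma cells exposed to compounds for 16 h, using GRP78 as sensor.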
Mito fusion act: blocks mitochondrial division or promotes mitochondrial fusion. S. cerevisiae fusion-defective mutant growth rescue, CellTiterGlo 48 h. 320,000 compounds, 0.23% hits. Potency, µM (titrated, usually from 46.1 µM), inactives show at the top dose growth rescue (activation), usual class: activators. AID 485298; further: potency means the concentration at half of the fitted maximal effect; % of control where 0% means no effect; nearly all actives have a fitted effect of over 45% in size
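Growth-rescue viability read-out: after 48 h at the non-permissive 37C in glycerol/ethanol YPEG, yeast mitochondrial fusion mutants are measured by CellTiterGlo luminescence; compounds (23 nl pinned per well) restoring growth score as division inhibitors or fusion activators.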
* = called active by the depositor; ? = inconclusive; nt = no result given. Compounds with a hit are over-represented: about 2.3% of the library has one in this group of screens. Unless noted, the call rests on the fitted dose curve; in most records, active means well fitted curve in the direction sought with a large enough effect; inconclusive means small, poorly fitted or top-dose-only effect, or another doubt; inactive means no such curve, though single readings can be large; an effect the other way counts as inactive or inconclusive.

Sample of the layout:
Assay codes – A = A549 viability; B = Nrf2 ARE act; C = Nrf2 inh; D = miR-21 reporter; E = Glioma ERSR ind; F = Mito fusion act
COc1ccccc1Nc1nn2c(=O)c3ccc(C(=O)Nc4ccc(F)cc4)cc3nc2s1
  A: -1%	B: 0%	C: 19%	D: -1%	E: -5%	F: nt
O=C(C1CC1)N1CCN(c2ccnc3cc(Cl)ccc23)CC1
  A: -8%	B: 0%	C: ?	D: 5%	E: -5%	F: -5%

Main list, from the start:
Assay codes – A = A549 viability; B = Nrf2 ARE act; C = Nrf2 inh; D = miR-21 reporter; E = Glioma ERSR ind; F = Mito fusion act
COc1ccccc1Nc1nn2c(=O)c3ccc(C(=O)Nc4ccc(F)cc4)cc3nc2s1
  A: -1%	B: 0%	C: 19%	D: -1%	E: -5%	F: nt
O=C(C1CC1)N1CCN(c2ccnc3cc(Cl)ccc23)CC1
  A: -8%	B: 0%	C: ?	D: 5%	E: -5%	F: -5%
CC(C)(C)C(=O)N1CCN(c2ccnc3cc(Cl)ccc23)CC1
  A: -2%	B: 2%	C: 8.2µM*	D: 16%	E: -1%	F: -3%
COc1ccccc1NC(=O)N1CCN(c2ccnc3cc(Cl)ccc23)CC1
  A: -2%	B: 5%	C: 13µM*	D: 19%	E: -2%	F: 0%
O=C(Nc1ccc(OC(F)(F)F)cc1)c1ccc2nccnc2c1
  A: ?	B: 6%	C: 13µM*	D: 5%	E: 7%	F: -6%
CCc1ccccc1NC(=S)N(CCN1CCOCC1)C1CCN(C(C)=O)CC1
  A: 6%	B: 3%	C: ?	D: -3%	E: -4%	F: -7%
COc1ccc(NC(=S)NC(NC(=O)c2cccc(Cl)c2)C(Cl)(Cl)Cl)c([N+](=O)[O-])c1 (stereo not drawn)
  A: ?	B: 11%	C: 26µM*	D: ?	E: -2%	F: -9%
Cc1ccc(NC(=O)C2CCN(S(=O)(=O)c3c(C)noc3/C=C/c3ccco3)CC2)cc1C
  A: 4%	B: 1%	C: 7%	D: -4%	E: -2%	F: nt
COc1ccc(-n2nnnc2SCC(=O)Nc2ccccc2N2CCOCC2)cc1OC
  A: 3%	B: 0%	C: -2%	D: -9%	E: -6%	F: -8%
Cc1ccc(C)c(-n2nnnc2SCC(=O)NCCC2=CCCCC2)c1
  A: nt	B: 2%	C: 18µM*	D: 4%	E: 1%	F: 18%
CC(=O)c1cccc(-n2nnnc2SCC(=O)Nc2ccccc2N2CCCCC2)c1
  A: -15%	B: 3%	C: 23µM*	D: 14%	E: -5%	F: ?
Cc1cccc(-n2nnnc2SCC(=O)NCC2CCCO2)c1 (stereo not drawn)
  A: 5%	B: 0%	C: 6%	D: -5%	E: -1%	F: 18µM*
Cc1ccc(-n2nnnc2SCC(=O)NCC2CCCO2)cc1C (stereo not drawn)
  A: 0%	B: -1%	C: -14%	D: nt	E: 2%	F: -6%
O=C(CSCCc1ccccn1)Nc1cccnc1Cl
  A: 2%	B: -1%	C: 12%	D: -7%	E: -3%	F: 3%
COc1ccc(-n2c(=O)/c(=C\c3cccs3)s/c2=C(/C#N)C(=O)NCCN2CCOCC2)cc1
  A: 2%	B: 0%	C: 2%	D: -4%	E: -5%	F: -11%
CCCCn1c(N)c(N(Cc2ccccc2OC)C(=O)c2ccc([N+](=O)[O-])s2)c(=O)[nH]c1=O
  A: -9%	B: -1%	C: -21%	D: nt	E: 2%	F: -1%
Nc1nc2sc3c(c2cc1C(=O)NCC(=O)O)CCCC3
  A: 4%	B: -1%	C: 8.2µM*	D: 24%	E: -7%	F: -13%
Nc1nc2sc3c(c2cc1C(=O)N1CCOCC1)CCCC3
  A: -5%	B: 0%	C: 9%	D: -33%	E: 5%	F: -1%
O=C1C=CC(=O)N1CCCCCCCCCCN1C(=O)C=CC1=O
  A: ?	B: ?	C: 26µM*	D: nt	E: -11%	F: nt
Cc1ccn2c(-c3csc(NCc4ccco4)n3)c(C)nc2c1
  A: -17%	B: 4%	C: 23µM*	D: 18%	E: -6%	F: -16%
COc1ccc(-c2csc(NCc3ccco3)n2)cc1C
  A: -4%	B: 5%	C: ?	D: -64%	E: 0%	F: -1%
CCc1ccc(C2C(C#N)=C(N)C(C#N)(C#N)C3=CCC(C(C)(C)C)CC32)cc1 (stereo not drawn)
  A: ?	B: 26%	C: ?	D: 18%	E: 0%	F: ?
Cc1c2ccccc2nc2c(F)c(NCCO)c(F)c(F)c12
  A: -1%	B: 17%	C: 9%	D: -15%	E: 4%	F: 2%
OCCNc1c2ccccc2nc2c(F)c(F)c(F)c(F)c12
  A: 7%	B: 11µM*	C: 5%	D: -8%	E: -7%	F: 15%
CN(C)CCCNc1c2ccccc2nc2ccccc12
  A: 8.2µM*	B: -1%	C: 8.2µM*	D: 29%	E: -8%	F: 30%

Reprinted at random: 2 entries already listed.
Assay codes – A = A549 viability; B = Nrf2 ARE act; C = Nrf2 inh; D = miR-21 reporter; E = Glioma ERSR ind; F = Mito fusion act
O=C1C=CC(=O)N1CCCCCCCCCCN1C(=O)C=CC1=O
  A: ?	B: ?	C: 26µM*	D: nt	E: -11%	F: nt
CC(C)(C)C(=O)N1CCN(c2ccnc3cc(Cl)ccc23)CC1
  A: -2%	B: 2%	C: 8.2µM*	D: 16%	E: -1%	F: -3%

Additional results.
Assay codes – A = A549 viability; B = Nrf2 ARE act; C = Nrf2 inh; D = miR-21 reporter; E = Glioma ERSR ind; F = Mito fusion act
O=C(COC(=O)c1ccc2c(c1)S(=O)(=O)N=C1CCCCCN12)NCc1cccs1
  A: -1%	B: 0%	C: 3%	D: 1%	E: -3%	F: 4%
C=CCN1C(=O)CN=C1Nc1ccc(F)cc1
  A: -4%	B: 0%	C: 4%	D: 0%	E: -5%	F: 6%
CCC(=O)N=c1n(C)c2ccccc2n1CCOc1ccccc1
  A: -2%	B: 0%	C: 1%	D: -20%	E: 1%	F: nt
Cn1c(=O)c(CCc2ccccc2)nc2cncnc21
  A: nt	B: nt	C: nt	D: nt	E: -1%	F: nt
CCOc1ccccc1NS(=O)(=O)c1ccc(N2CCCCS2(=O)=O)cc1
  A: 11%	B: 0%	C: nt	D: 7%	E: -2%	F: nt
O=C(c1ccc(F)cc1F)C1CCN(c2ccc([N+](=O)[O-])cn2)CC1
  A: -17%	B: 1%	C: 23µM*	D: 2%	E: 0%	F: 0%
O=C(Nc1ccc(F)cc1F)N1CCCN(c2ccc([N+](=O)[O-])cn2)CC1
  A: -18%	B: -1%	C: ?	D: 8%	E: -5%	F: 0%
O=C(/C=C/c1ccccc1Cl)c1ccc[nH]1
  A: -1%	B: ?	C: -1%	D: -8%	E: 10%	F: 14µM*
O=C(/C=C/c1ccc(Cl)cc1Cl)c1ccc[nH]1
  A: -9%	B: ?	C: -19%	D: -25%	E: 5%	F: 1%
c1ccc2c(c1)CNC1(CCCCC1)C2
  A: -2%	B: 0%	C: -11%	D: -1%	E: -3%	F: -4%
CCOc1cc(/C=N/NC(=O)CSc2nncn2C)ccc1OC(=O)c1ccc(Cl)cc1
  A: 3%	B: 0%	C: 21µM*	D: 7%	E: -6%	F: -11%
CCOc1cc(/C=N\NC(=O)c2ccc(NC(=O)C(C)(C)C)cc2)ccc1OC(=O)c1ccc(C)cc1
  A: -7%	B: -1%	C: 10µM*	D: -8%	E: -3%	F: 1%
N#CC1(Nc2ccc(Br)cc2)CCCC1
  A: -7%	B: -1%	C: -5%	D: nt	E: -1%	F: nt
O=C(Nc1ccc(-n2cc(Br)cn2)cc1)c1ccncc1
  A: -10%	B: 3%	C: 26µM*	D: -5%	E: -1%	F: 0%
O=C(Nc1ccc(-n2cc(Cl)cn2)cc1)c1ccncc1
  A: 1%	B: 3%	C: -22%	D: -12%	E: -2%	F: 1%
COc1ccccc1NC(=O)CSc1nnc(NC(=O)NC2CCCCC2)s1
  A: -9%	B: 1%	C: nt	D: -28%	E: -1%	F: nt
O=C(N/N=C/C=C/c1ccco1)c1ccccc1Cl
  A: 3%	B: 11µM*	C: 14%	D: -2%	E: 6%	F: -8%
O=C(/C=C/c1ccco1)c1cccc([N+](=O)[O-])c1
  A: 0%	B: ?	C: 12%	D: nt	E: -2%	F: nt
O=C(N/N=C/C=C/c1ccco1)c1cccc([N+](=O)[O-])c1
  A: 8%	B: 2.2µM*	C: 12%	D: 1%	E: 0%	F: -12%
O=C(/C=C/c1cccc(Cl)c1Cl)OCC(=O)N1CCOCC1
  A: 2%	B: 18µM*	C: -2%	D: nt	E: -3%	F: 8%
O=C(/C=C/c1cc(Br)ccc1F)OCC(=O)N1CCOCC1
  A: -3%	B: 11µM*	C: -2%	D: nt	E: -1%	F: nt
CC(C)CCNC(=O)NC(=O)COC(=O)/C=C/c1cc(Br)ccc1F
  A: 2%	B: 1%	C: -5%	D: 0%	E: 4%	F: 11%
